How the values were obtained:
24 MOA male C57/B6 mice = assay: Y-maze test in aged mice, aducanumab and/or Etelcalcetide; format: in vivo
serum PTH (sPTH) = assay: Serum PTH in aging-associated HPT mice; format: in vivo; conditions: aged male C57/B6 mice; aducanumab 40 mg/kg/week by twice weekly injections for 5 weeks; Etelcalcetide 0.3 mg/kg once daily

aducanumab was tested, and the “neuroprotection, neurobehavior assessed by Y-maze” value (24 MOA male C57/B6 mice) was “restore cognitive functions” and the “reduction of sPTH” value (serum PTH (sPTH)) was 25%.

— patent US20250352609A1, “Methods For Treating Alzheimer's Disease or Dementia Using A Calcilytic And A Calcimimetic” (The United States Government As Represented By The …, priority 2024, published 2025)
